According to PubChem BioAssay AID624296 (National Center for Advancing Translational Sciences (NCATS), 2012):
The list shows a part of the results, in another mix than the full data. Records with an inconclusive call do not appear. Some salts and complexes are drawn in separate pieces, as the source files them; their charges need not balance. Calls of active or inactive are those of the source. Calls follow the shape of the dose curve; as a rule, active = well fitted activation curve with a large enough effect; inconclusive = small, poorly fitted or top-dose-only effect; inactive = no such curve, though single readings can be large or run the other way.

Assay: A quantitative high throughput screen for small molecules that induce DNA re-replication in MCF 10a normal breast cells. Also: % of control where 0% means no effect; nearly all actives have a fitted effect of over 50% in size.
Conditions: MCF 10A DNA re-replication, Hoechst nuclear intensity, 48 h; at 46.1 µM (top of the series) unless noted

SMILES | activity, positive = re-replication
Cc1ccc(NC2(C#N)CCN(Cc3ccccc3)CC2)cc1 | inactive: 1.15%
Cc1ccc(C(=O)NCC2(N3CCCCC3)CCCCC2)o1 | inactive: -0.166%
Fc1ccccc1NC1CCN(Cc2ccccc2)CC1 | inactive: 23.8%
COc1cc(OC)cc(C(=O)NCC2(N3CCCCC3)CCCCC2)c1 | inactive: -0.408%
CC(=O)N(c1ccccc1)C1CCNCC1 | inactive: -16.4%
O=C(NCC1(N2CCCCC2)CCCCC1)c1ccco1 | inactive: 17.9%
CN(C)c1ccc(C(=O)NCC2(N3CCCCC3)CCCCC2)cc1 | inactive: 3.63%
Cc1ccccc1NC1(C#N)CCN(Cc2ccccc2)CC1 | inactive: -2.39%
CCCOc1ccc(C(=O)NCC2(N(C)C)CCCCC2)cc1 | inactive: 16.7%
CC(C)(C)OC(=O)N1CCC(Nc2ccccc2)CC1 | inactive: -1.09%
O=C(O)C1(Nc2ccccc2)CCN(Cc2ccccc2)CC1 | inactive: -1.01%
CCOc1ncccc1C(=O)NCC1(N2CCOCC2)CCCCC1 | inactive: 6.99%
CN1CCC(Nc2ccc(F)c(Cl)c2)CC1 | inactive: 6.12%
CN1CCC(Nc2ccc(Cl)cc2)CC1 | inactive: 0.911%
CCC(CO)(C(=O)OC1CN2CCC1CC2)c1ccccc1 (configuration not stated) | inactive: 16.7%
COc1cc(OC)cc(C(=O)NCC2(N3CCOCC3)CCCCC2)c1 | inactive: 2.82% [at 9.22 µM]
COc1cccc(C(=O)N(c2cc(C)cc(C)c2)C2CCN(C(=O)OC(C)(C)C)CC2)c1 | inactive: 8.4%
COc1ccc(C(=O)NCC2(N3CCOCC3)CCCCC2)cc1OC | inactive: -0.395%
O=C(NCC1(N2CCOCC2)CCCCC1)c1cc(Br)ccc1Cl | inactive: -2.12%
COc1cc(C(=O)NCC2(N3CCOCC3)CCCCC2)cc(OC)c1C | inactive: 4.35%
O=C(OC1CN2CCC1CC2)C1c2ccccc2C=Cc2ccccc21 (configuration not stated) | inactive: 8.95%
O=C(O)c1cccc(Nc2c([N+](=O)[O-])cc([N+](=O)[O-])cc2[N+](=O)[O-])c1 | inactive: 8.76%
N/C(=N\O)c1c(N)no[n+]1[O-] | inactive: -0.333%
CCOC(=O)N1CCC(Nc2ccc(C)cc2)CC1 | inactive: -0.205%

SMILES | activity, positive = re-replication
CCOC(=O)C(CC)C1=NC(C)(C)Cc2ccccc21.O=[N+]([O-])c1cc([N+](=O)[O-])c(O)c([N+](=O)[O-])c1 (configuration not stated) | inactive: 4.42%
CC(C)(C)OC(=O)N1CCC(N(C(=O)c2ccccc2)c2ccc(Cl)cc2)CC1 | inactive: 23%
N#Cc1ccc(C(=O)NCC2(N3CCCCC3)CCCCC2)cc1 | inactive: 5.14%
c1ccc(CN2CCC(Nc3ccccc3)CC2)cc1 | inactive: 5.02%
CCCN1CCC(Nc2cc(OC)cc(OC)c2)CC1 | inactive: -3.3%
CN(C)C1(CNC(=O)c2cccc(C#N)c2)CCCCC1 | inactive: -14.1%
CSc1ccc(C(=O)NCC2(N3CCOCC3)CCCCC2)cc1 | inactive: 3.76%
O=C(NCC1(N2CCCCC2)CCCCC1)c1cccc([N+](=O)[O-])c1 | inactive: -11.5%
CCN1CCC(Nc2ccc(Cl)cc2)CC1 | inactive: 0.067%
N#CC1(Nc2ccccc2)CCN(CCc2ccccc2)CC1 | inactive: -2.32%
O=C(NCC1(N2CCCCC2)CCCCC1)c1ccc(OC(F)F)cc1 | inactive: -0.984%
CN1CCN(CCOC(=O)C(O)(c2ccccc2)c2ccccc2)CC1 | inactive: -1.53%
COc1ccc(NC2CCN(C(=O)OC(C)(C)C)CC2)cc1 | inactive: 0.51%
COc1cc(C(=O)NCC2(N3CCCCC3)CCCCC2)ccc1OC(F)F | inactive: -9.52%
O=C(NCC1(N2CCOCC2)CCCCC1)c1cc(=O)[nH]c2ccccc12 | inactive: -1.39%
O=C(NCC1(N2CCCCC2)CCCCC1)c1cccc(C(F)(F)F)c1 | inactive: 6.3%
COc1cc(OC)c(C(=O)NCC2(N(C)C)CCCCC2)cc1OC | inactive: 16.9%
O=C(NCC1(N2CCOCC2)CCCCC1)c1cc(F)c(F)cc1Cl | inactive: -2.56%
COc1ccc(CN(CCCl)CCCl)cc1Cl | inactive: 1.03%
O=[N+]([O-])c1cc([N+](=O)[O-])c(OC2CCCCC2O)c([N+](=O)[O-])c1 (configuration not stated) | inactive: 0.861%
CN(C)c1cccc(C(=O)NCC2(N3CCCCC3)CCCCC2)c1 | inactive: -5.37%
CC(C)c1ccc(NC2CCN(C(=O)OC(C)(C)C)CC2)cc1 | inactive: 10%
CCCOc1ccc(C(=O)NCC2(N(C)C)CCCCC2)cc1OC | inactive: 17.5%
COc1ccc2c(c1O)-c1c(O)c(OC)cc3c1[C@H](C2)[N+](C)(C)CC3.O=[N+]([O-])c1cc([N+](=O)[O-])c([O-])c([N+](=O)[O-])c1[O-] | inactive: -9.89%

SMILES | activity, positive = re-replication
CN1CCC(Nc2cccc(F)c2)CC1 | inactive: 1.01%
O=C(OC1CN2CCC1CC2)c1ccc([N+](=O)[O-])cc1 (configuration not stated) | inactive: 22.2%
CSc1ccccc1C(=O)NCC1(N2CCCCC2)CCCCC1 | inactive: 12.5%
Cc1cccc(NC2(C#N)CCN(Cc3ccccc3)CC2)c1 | inactive: 0.944%
O=C(NCC1(N2CCCCC2)CCCCC1)c1ccc(=O)[nH]c1 | inactive: -2.63%
O=C(NCC1(N2CCCCC2)CCCCC1)c1cccs1 | inactive: 8.58%
COc1ccc(C(=O)NCC2(N3CCCCC3)CCCCC2)c(OC)c1OC | inactive: 0.0342%
CC(C)(C)OC(=O)N1CCC(N(C(=O)c2ccccc2)c2ccc(F)cc2)CC1 | inactive: -2.9%
CCOC(=O)N1CCC(Nc2ccc(OC)cc2)CC1 | inactive: 0.936%
O=C(OC1CN2CCC1CC2)C1c2ccccc2Oc2ccccc21 (configuration not stated) | inactive: 2.43%
N#CC1(Nc2ccccc2)CCN(Cc2ccccc2)CC1 | inactive: -1.05%
O=C(NCC1(N2CCCCC2)CCCCC1)c1ccc(Cl)s1 | inactive: -2.15%
O=C1C(O)=C([N+](=O)[O-])C(=O)C(O)=C1[N+](=O)[O-] | inactive: -20.1%
COc1ccc(Cl)cc1C(=O)NCC1(N2CCOCC2)CCCCC1 | inactive: 13%
O=C(NCC1(N2CCOCC2)CCCCC1)c1cc2ccccc2o1 | inactive: -0.39%
O=C(NCC1(N2CCCCC2)CCCCC1)c1ccc(Cl)nc1 | inactive: -7.69%
O=C(NCC1(N2CCCCC2)CCCCC1)c1ccc(F)cc1 | inactive: 6.84%
O=P1(N(CCCl)CCCl)SCCCS1 | inactive: -1.39%
CCCCOc1ccc(C(=O)NCC2(N3CCOCC3)CCCCC2)cc1 | inactive: 12.9%
CCOC(=O)N1CCC(Nc2ccc(F)cc2)CC1 | inactive: -3.02%
CCOc1ccc(C)cc1CN(CCCl)CCCl | inactive: 1.23%
O=C1CCN(Cc2ccccc2)CC1 | inactive: 2.34%
COc1cc(C(=O)NCC2(N(C)C)CCCCC2)ccc1OC(F)F | inactive: 14%
CCOC(=O)N1CCC(Nc2cccc(C)c2)CC1 | inactive: 2.76%
